This passage reports cell killing of bovine granulosa cells results from EP1878438A2.

The target in the assay is T1, LH receptors on bovine granulosa cells and bovine small luteal cells (bovine), Q28005.
T1 chain: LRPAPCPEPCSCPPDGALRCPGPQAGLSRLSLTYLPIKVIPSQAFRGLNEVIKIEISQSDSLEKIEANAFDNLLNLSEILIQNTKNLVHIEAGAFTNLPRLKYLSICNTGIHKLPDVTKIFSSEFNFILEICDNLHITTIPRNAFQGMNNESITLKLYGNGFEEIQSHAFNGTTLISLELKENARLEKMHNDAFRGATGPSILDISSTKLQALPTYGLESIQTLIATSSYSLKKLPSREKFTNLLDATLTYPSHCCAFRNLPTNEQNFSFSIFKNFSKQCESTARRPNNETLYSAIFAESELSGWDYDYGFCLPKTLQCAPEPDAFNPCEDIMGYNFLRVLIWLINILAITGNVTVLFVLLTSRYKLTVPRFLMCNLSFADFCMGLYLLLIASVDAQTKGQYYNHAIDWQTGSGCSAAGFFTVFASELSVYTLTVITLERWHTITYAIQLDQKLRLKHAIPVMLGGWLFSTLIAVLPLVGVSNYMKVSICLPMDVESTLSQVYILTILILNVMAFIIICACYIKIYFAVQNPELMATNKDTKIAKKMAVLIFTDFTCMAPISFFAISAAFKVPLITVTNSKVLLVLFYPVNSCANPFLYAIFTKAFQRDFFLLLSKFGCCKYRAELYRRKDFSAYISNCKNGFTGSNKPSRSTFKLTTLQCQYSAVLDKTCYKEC
As to the kind of experiment: cell-based or functional assay.

As to FALALKALKKALKKLKKALKKALSYAVALSCQCALCRR (modifications not checked) [hecate-bLH conjugate], the cell killing of bovine granulosa cells at 1 µM (fold vs hecate alone) is 2.
